Assay outcomes (PubChem BioAssay)
TrxR1 substrate – rat thioredoxin reductase 1 substrate activity; O89049; purified TrxR1 substrate turnover, NADPH consumption readout; Potency, µM (highest dose often 114 µM), for inactives: at the top dose activity change, negative = substrate turnover; actives 0.01% (n = 390,000); AID 588456; note: potency is the fitted concentration of half-maximal effect; % is set by controls: 0 for no effect and ±100 for the full control effect; nearly all actives have a fitted effect of over 50% in size
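Rat TrxR1, dispensed at 90 nM, was prereduced with 400 uM NADPH (final) for 5 min at ~22 deg C, then incubated with compound 15 min before 400 uM selenite. A first-read NADPH fluorescence drop versus no-compound background flagged substrates.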
miR-21 reporter – miR-21 reporter, rising signal. HeLa miR-21 FLuc reporter, luciferase, 48 h. Potency, µM (titrated, usually from 38.3 µM), without a hit: at the top dose reporter change, positive = more light. 340,000 tested, under 10 active. AID 2288; active = well fitted rising curve with a large enough effect; inconclusive = small, poorly fitted or top-dose-only effect; inactive = no such curve, though single readings can be large or run the other way;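 also: % of control where 0% means no effect; miR-21 action dims this reporter so a rising signal means less miR-21 action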
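Using DMEM plus 10% FBS, HeLa miR-21-FLuc cells are incubated with test compounds (final up to about 40uM) for 48 hours; firefly luciferase signal is then imaged following reagent-mediated lysis.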
rTrxR1 inhibitor – blocks rat thioredoxin reductase 1. actives 1% (n = 390,000). recombinant rTrxR1, NADPH fluorescence consumption, selenite substrate. O89049. Potency, µM (top dose mostly 114 µM), inactives show at the top dose activity change, negative = inhibition, actives largely listed as inhibitors; note: potency is the fitted concentration of half-maximal effect; % is set by controls: 0 for no effect and ±100 for the full control effect; nearly all actives have a fitted effect of over 65% in size
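Rat TrxR1 (90 nM in the dispensed reagent) was pre-reduced with 400 uM NADPH for 5 min at room temperature, then incubated with compound for 15 min. After 400 uM selenite was added, NADPH fluorescence (Ex 340/Em 450 nm) was followed for 8 min.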
PINK1 modulator – PINK1 expression modulation; PINK1 immunofluorescence, high-content cytometry, 24 h; Potency, µM (titrated, usually from 76.6 µM), without a hit: top-dose activation (PINK1 increase), hits mostly activators; actives 0.2% (n = 410,000); AID 624263; active = well fitted activation curve with a large enough effect; inconclusive = small, poorly fitted or top-dose-only effect; cell line not stated here; note: potency is the fitted concentration of half-maximal effect; % of control where 0% means no effect; nearly all actives have a fitted effect of over 65% in size
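Decision-based qHTS: stable cells, 24 h exposure to five compound concentrations, CCCP as control. Fixed cells stained for PINK1 plus nuclear, mitochondrial and cell markers, cytometer read.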
GALK inhibitor – blocks human galactokinase activity; Potency, µM (top dose mostly 57.5 µM), without a hit: at the highest dose activity change, negative = inhibition, most hits filed as inhibitors; actives 0.007% (n = 270,000); Purified GALK, Kinase-Glo residual ATP luminescence; P51570; note: potency is the fitted concentration of half-maximal effect; % is set by controls: 0 for no effect and ±100 for the full control effect
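ATP-depletion format; final 35 uM ATP, 100 uM D-galactose, 5 nM enzyme; pH 8.0 HEPES/Mg2+ buffer; 60 min RT; luminescence read 10 min after detection reagent.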
The depositor's hits bear a star; ? = inconclusive; . = not tested or not shown; [ ] = remark or other dose. A selection: hits, their analogues and other compounds. The true share with any hit is near 1.1%. Unless noted, calls come from the whole dose curve; as a rule, active = well fitted curve in the direction sought with a large enough effect; inconclusive = small, poorly fitted or top-dose-only effect, or another doubt; inactive = no such curve, though single readings can be large; an effect the other way counts as inactive or inconclusive.

Assay codes: A = TrxR1 substrate; B = miR-21 reporter; C = rTrxR1 inhibitor; D = PINK1 modulator; E = GALK inhibitor
1: CC1=CC2OC3CC4OC(=O)C=CC=CC(=O)OCCC(C)C(O)C(=O)OCC2(CC1O)C4(C)C31CO1 (stereo not given)
  A: 2.1%[11.4 µM]; B: .; C: 5.5%[11.4 µM]; D: 1.1%; E: .

2: CC1=CC2OC3CC4OC(=O)C=CC=CC(C(C)O)OCC(O)C(C)CC(=O)OCC2(CC1O)C4(C)C31CO1 (stereo not given)
  A: 1.5%; B: .; C: 44.7µM*; D: -1.0%; E: .

3: C=CCN1C(=O)NC(=O)/C(=C/c2cnc(SC)nc2)C1=O
  A: 9.5%[57.1 µM]; B: -0.9%; C: 14.1µM*; D: 3.3%; E: -1.0%

4: C=CCN1C(=O)NC(=O)/C(=C/c2cc3c4c(c2)CCCN4CCC3)C1=O
  A: -6.8%; B: 4.0%; C: 44.7µM*; D: 1.8%; E: 1.1%

5: N[C@@H](Cc1cc(I)c(O)c(I)c1)C(=O)O
  A: -3.3%; B: -4.9%; C: 12.6µM*; D: 0.7%; E: .

6: NC(Cc1cc(O)c(O)cc1O)C(=O)O (stereo not given)
  A: 8.9%[57.1 µM]; B: .; C: 10.6µM*; D: -0.2%; E: .

7: Cc1cccc(N(C)S(=O)(=O)c2cc(-c3cnc(C4CC4)o3)ccc2C)c1
  A: 2.0%[57.1 µM]; B: ?; C: 15.1%[57.1 µM]; D: 1.0%; E: .

8: CCOC(=O)Nc1ccc(NCc2ccc(F)cc2)nc1N
  A: 28.3%[57.1 µM]; B: .; C: 10.6µM*; D: 14.0%; E: .

9: COc1ccc(CNC(=O)c2cnn3c(C)c(Cc4ccc(F)cc4)c(C)nc23)cc1
  A: 37.6%[57.1 µM]; B: 1.1%; C: 60.1%[57.1 µM]; D: -0.8%; E: .

10: O=C(O)CCn1cc(C=C2C(=O)NC(=S)NC2=O)c(-c2cc3ccccc3oc2=O)n1
  A: 2.9%; B: -7.3%; C: 7.08µM*; D: -0.9%; E: -2.7%

11: COc1ccc(CC2NCC(O)C2OC(C)=O)cc1 (stereo not given)
  A: 10.1%[57.1 µM]; B: .; C: 25.1µM*; D: -1.3%; E: .

12: COc1ccc(CC(=O)N2CCN(C)CC2)cc1
  A: 3.7%; B: -5.4%; C: -2.3%; D: -3.9%[38.3 µM]; E: 0.1%

13: COc1c(C=C2C(=O)NC(=O)NC2=O)c(CCN(C)C(=O)c2ccccc2)cc2c1OCO2
  A: -0.6%; B: -1.9%; C: 17.8µM*; D: -0.6%; E: .

14: N#CC(C#N)=Cc1cccnc1
  A: 15.5%[57.1 µM]; B: 0.1%; C: 14.1µM*; D: 1.4%; E: 3.3%

15: O=C(Nc1nccs1)C(Cl)(Cl)Cl
  A: 8.8%[57.1 µM]; B: 0.6%; C: 18.2%[57.1 µM]; D: -0.4%; E: -2.2%

16: O=C(CCl)Nc1nccs1
  A: 0.2%; B: 22.2%; C: 12.6µM*; D: 0.0%; E: .

17: O=C(CN1CCOCC1)c1cccc2ccccc12
  A: -2.5%; B: -8.8%; C: 17.8µM*; D: 0.1%; E: -2.8%

18: O=C(CN1CCCC2CCCCC21)c1ccc(I)cc1 (stereo not given)
  A: 0.5%; B: .; C: -31.3%; D: .; E: .

19: CCOP1(=O)C=C(Sc2ccc([N+](=O)[O-])cc2[N+](=O)[O-])C(C)(C)O1 (stereo not given)
  A: -16.4%; B: .; C: 14.1µM*; D: -1.0%; E: .

20: O=[As](O)(O)c1ccc(N=Nc2ccc(O)cc2)cc1
  A: 2.7%[2.29 µM]; B: 9.4%; C: 10.0%[2.29 µM]; D: 4.0%; E: -4.7%

21: O=C1C(Cl)=CC(=Nc2ccc(O)cc2)C=C1Cl
  A: -2.9%; B: .; C: 1.58µM*; D: 10.6%; E: .

22: Cc1cc(C(C#N)c2ccc(Cl)cc2)c(Cl)cc1NC(=O)c1cc(I)cc(I)c1O (stereo not given)
  A: 0.2%; B: .; C: -0.9%; D: 14.1µM*; E: .

23: CCOC(=O)c1ccc(N2C(=O)c3n[nH]c(-c4cccs4)c3C2c2ccc(Cl)cc2Cl)cc1 (stereo not given)
  A: -3.2%; B: ?; C: 14.3%; D: -0.9%; E: .

24: CCCC(=O)NC(Oc1ccccc1Cl)C(Cl)(Cl)Cl (stereo not given)
  A: 4.1%; B: -0.4%; C: 15.8µM*; D: .; E: -2.3%

25: CCCC(=O)NC(Oc1ccc(Cl)cc1Cl)C(Cl)(Cl)Cl (stereo not given)
  A: 3.6%[57.1 µM]; B: -2.0%; C: -69.9%[57.1 µM]; D: -4.8%[38.3 µM]; E: 2.7%

26: O=C1NCCN(Cc2cccc(Oc3ccccc3)c2)C1CC(=O)N1CCCCC1 (stereo not given)
  A: -6.0%; B: 0.7%; C: ?; D: 5.7%; E: 1.9%

27: Cn1c(O)c(C(c2ccncc2)c2c(O)n(C)c(=S)n(C)c2=O)c(=O)n(C)c1=S
  A: -9.4%; B: -0.6%; C: 7.94µM*; D: 2.7%; E: -3.3%

28: Cn1c(O)c(C(c2ccccn2)c2c(O)n(C)c(=S)n(C)c2=O)c(=O)n(C)c1=S
  A: -12.5%; B: -0.4%; C: -28.3%; D: 3.6%; E: .

29: CC(C)Oc1ccc(C(=O)Nc2ccc3c(c2)CCCN3C(=O)c2cccs2)cc1
  A: 0.0%[57.1 µM]; B: ?; C: 12.6%[57.1 µM]; D: 1.3%; E: .

30: CCCN(CCC)[C@@H]1CCc2c(F)ccc(O)c2C1
  A: .; B: .; C: 7.8%; D: .; E: .

Another view of some results above.
cpd | Molecule | TrxR1 substrate | miR-21 reporter | rTrxR1 inhibitor | PINK1 modulator | GALK inhibitor
13 | COc1c(C=C2C(=O)NC(=O)NC2=O)c(CCN(C)C(=O)c2ccccc2)cc2c1OCO2 | -0.6% | -1.9% | 17.8µM* | -0.6% | .
17 | O=C(CN1CCOCC1)c1cccc2ccccc12 | -2.5% | -8.8% | 17.8µM* | 0.1% | -2.8%
26 | O=C1NCCN(Cc2cccc(Oc3ccccc3)c2)C1CC(=O)N1CCCCC1 (stereo not given) | -6.0% | 0.7% | ? | 5.7% | 1.9%

Remaining list, next part
Assay codes: A = TrxR1 substrate; B = miR-21 reporter; C = rTrxR1 inhibitor; D = PINK1 modulator; E = GALK inhibitor
31: CCCCc1ccc(NC(=O)c2cccn(Cc3ccc(Cl)cc3)c2=O)cc1
  A: 3.3%[57.1 µM]; B: 9.6%; C: 16.9%[57.1 µM]; D: -4.4%; E: .

32: Cc1ccc(N2C(=O)/C(=C/c3ccc(CN(CCC#N)S(C)(=O)=O)o3)C(=O)NC2=S)cc1
  A: 2.2%; B: -1.6%; C: 10µM*; D: 1.0%; E: -4.5%

33: Cc1ccc(/C=C2\C(=O)NC(=S)N(c3ccc(F)cc3)C2=O)o1
  A: 0.6%; B: -0.7%; C: ?; D: -0.3%; E: -7.9%

34: COc1ccc(CN2CCc3nc(N4CCN(c5ccc(F)cc5)CC4)ncc3C2)c(OC)c1OC
  A: -6.9%[57.1 µM]; B: ?; C: 2.3%[57.1 µM]; D: -0.6%; E: .

35: O=C(c1ccc(CS(=O)(=O)c2ccccc2)o1)N1CCC2(CC1)OCCO2
  A: 4.4%[57.1 µM]; B: -1.7%; C: 28.2µM*; D: 12.7%[38.3 µM]; E: -0.1%

36: COc1ccc(N2C(=O)CS(=O)C(c3ccccc3)C2=O)cc1 (stereo not given)
  A: 2.7%; B: -35.1%; C: 50.1µM*; D: 10.0%; E: 7.4%

37: N#CC(C#N)=NNc1ccc([N+](=O)[O-])cc1
  A: ?; B: 10.8%; C: 22.4µM*; D: ?; E: .

38: C=CCN1CC[C@]23c4c5ccc(O)c4O[C@@H]2/C(=N/N=C2\CC[C@@]4(O)C6Cc7ccc(O)c8c7[C@@]4(CCN6CC=C)[C@@H]2O8)CC[C@@]3(O)C1C5
  A: 16.6%[57.1 µM]; B: .; C: 20µM*; D: .; E: .

39: O=C1NC(=S)NC(=O)C1=Cc1cccn1-c1ccc(O)cc1
  A: 1.1%; B: ?; C: 20µM*; D: -0.1%; E: -8.7%

40: O=C1NC(=O)N(c2ccccc2)C(=O)/C1=C\c1ccc2c3c(cccc13)CC2
  A: .; B: 2.6%; C: .; D: .; E: -0.2%

41: COc1ccccc1N1C(=O)NC(=O)/C(=C/c2ccc3c4c(cccc24)CC3)C1=O
  A: 83.3%; B: -6.3%; C: 8.91µM*; D: 6.1%; E: -0.5%

42: Cc1cc(C)cc(OCCOc2cccc(C=C3C(=O)NC(=O)NC3=O)c2)c1
  A: 0.7%; B: -21.2%; C: 11.2µM*; D: 1.0%; E: -1.4%

43: O=[N+]([O-])c1ccc(O[C@@H]2O[C@H](CO)[C@@H](O)[C@H](O)[C@H]2F)c([N+](=O)[O-])c1
  A: -1.9%[57.1 µM]; B: .; C: -1.8%[57.1 µM]; D: .; E: .

44: O=C(Nc1ccc(Br)cc1)c1cccc(S(=O)(=O)N2CCc3ccccc32)c1
  A: 5.4%; B: ?; C: 11.8%; D: 4.2%; E: .

45: CCN1C(=O)C(=C/C=C/c2ccco2)C(=O)N(CC)C1=S
  A: -0.8%; B: 0.2%; C: 4.47µM*; D: 2.8%; E: 0.3%

46: C=C1C/C(=C/C)C(=O)O[C@@H]2CCN3CC=C(COC(=O)[C@]1(C)O)[C@@H]23
  A: 43.3%; B: .; C: -21.9%; D: .; E: .

47: COc1ccc(C(=O)N2CCC3(CC2)OCCO3)cc1
  A: 2.6%; B: -0.8%; C: 4.3%; D: -0.8%; E: 4.8%

48: O=C(c1ccc2nc(-c3ccco3)c(-c3ccco3)nc2c1)N1CCC2(CC1)OCCO2
  A: 3.2%; B: 1.0%; C: 4.47µM*; D: -1.5%; E: 1.2%
